# Antibody variant affinities, Ab-14 light chain, assay B

The target is the same throughout: PDVDLGDISGINAS, from the HR2 region of SARS-CoV-2 spike.

Ab-14 is the parent antibody, in scFv form: VH, then a (GGGGS)3 linker, then VL. The heavy chain is unchanged in all variants.
VH: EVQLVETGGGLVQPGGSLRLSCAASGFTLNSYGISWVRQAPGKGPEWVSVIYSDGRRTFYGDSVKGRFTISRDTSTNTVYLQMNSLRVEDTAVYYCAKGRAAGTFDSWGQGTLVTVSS
VL: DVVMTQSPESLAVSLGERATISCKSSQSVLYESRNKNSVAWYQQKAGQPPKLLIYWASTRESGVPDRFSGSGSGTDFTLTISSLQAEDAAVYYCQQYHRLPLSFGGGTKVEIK

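The starting antibody came from a phage panning campaign against this peptide. Designed CDR sequences, proposed from the first random library and measured here. Their group label is 14L_GP_Gen (GP: Gaussian process model; Gen: genetic algorithm; a sequence that several methods proposed may carry one label only). AlphaSeq pools MATa yeast showing the antibodies with MATalpha yeast showing the peptide. Pairs that bind mate more often; barcode pairs of the diploids are counted by sequencing. Each replicate has its own calibration line, from reference interactions of the BCL2 family. Each pool was mated in six replicate cultures.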

Each variant is given by its three light chain CDRs, as the data file delimits them; those of the parent are KSSQSVLYESRNKNSVA, WASTRES, QQYHRLPLS.
Scale: log10 of Kd in nM, estimated from mating counts; low values are strong binders.
Averages over replicates are reported, and they cover detected replicates only.

CDR-L1	CDR-L2	CDR-L3	replicates, log10 nM	log10 Kd (nM), mean	control signals
KVSQSDLYESRNKNSVA	DASQRES	QQYHRLPLS	0.37 0.09 0.21 0.13 0.14 0.37	0.22	0 of 18
KLSQSVDYESRNKNSVA	DASTRCS	QQYHRLPLS	0.23 0.11 0.03 -0.16 0.03 0.25	0.08	0 of 18
KMSQSVLYEDRNKNSVA	NASQRES	QQYHRLPLS	0.12 0.00 0.05 -0.09 0.01 0.20	0.05	2 of 18 (2.90)
KLSQSGLYESRNKNSVA	HASTRES	QQYHRLPLS	0.65 0.28 0.24 0.20 0.43 0.51	0.39	1 of 18 (1.50)
KLSQSPLYESRNKNSVA	NASTRLS	QQYHRLPLS	0.41 0.51 0.66 0.55 0.24 1.74	0.69	0 of 18
KCSQSVLYESRNKNSVA	EASTRES	QQYHRLPLS	-0.13 0.14 -0.22 -0.20 -0.13 -0.04	-0.10	0 of 18
KMQQSVLYESRNKNSVA	NASTRMS	QQYHRLPLS	0.21 0.14 0.05 -0.06 0.26 0.32	0.16	3 of 18 (2.92)
KMSQSVLYESRNKNSVA	NASTREM	QQYHRLPLS	-0.15 0.06 -0.24 -0.24 -0.15 -0.14	-0.14	1 of 18 (2.41)
KVSQSYLYESRNKNSVA	NGSTRES	QQYHRLPLS	-0.51 -0.59 -0.73 -0.75 -0.76 -0.60	-0.66	1 of 18 (2.32)
KLMQSVLYEERNKNSVA	NASQRES	QQYHRLPLS	0.20 0.42 0.28 0.42 0.27 0.35	0.32	1 of 18 (3.41)
KLEQSEPYESRNKNSVA	NASTRES	QQYHRLPLS	0.15 -0.26 -0.25 -0.07 -0.15 0.08	-0.08	1 of 18 (2.20)
KVSQSMLYESRNKNAVA	NASQRES	QQYHRLPLS	-0.32 -0.50 -0.57 -0.71 -0.53 -0.36	-0.50	1 of 18 (2.74)
KLPQSTLYESRNKNSVA	NASTREQ	QQYHRLPLS	0.25 0.08 -0.10 0.02 0.03 0.12	0.07	1 of 18 (2.33)
KISQSELYESRNKNSVA	NASQRES	QQYHRLPLS	0.05 0.21 0.00 -0.15 -0.14 0.13	0.02	3 of 18 (2.74)
KLSISQLYESRNKNSVA	NASTRES	QQYHRLPLS	-0.15 -0.26 -0.13 -0.33 -0.03 -0.19	-0.18	0 of 18
KLEGSQLYESRNKNSVA	NASTRES	QQYHRLPLS	0.34 0.16 0.33 0.22 0.03 0.35	0.24	2 of 18 (3.96)
KLPQSQLYESRNKNAVA	NASTRES	QQYHRLPLS	-0.33 -0.30 -0.09 -0.45 -0.54 -0.28	-0.33	0 of 18
KLSPSMLYESRNKNSVA	NASTRES	QQYHRLPLS	-0.33 -0.39 -0.60 -0.49 -0.44 -0.33	-0.43	3 of 18 (2.80)
KLMQSMLYESRNKNSVA	NASQRLS	QQYHRLPLS	0.10 -0.10 -0.07 -0.41 -0.07 0.03	-0.09	0 of 18
KVSQSVLYESRNKNAVA	QASTRES	QQYHRLPLS	-0.20 -0.33 -0.49 -0.62 -0.66 -0.35	-0.44	1 of 18 (2.87)
KFSQSVLYESRNKNSVA	NASTRMQ	QQYHRLPLS	-0.07 -0.17 -0.18 -0.30 -0.26 -0.43	-0.24	0 of 18
HLSQSVLYESRNKNSVA	NASTREM	QQYHRLPLS	-0.14 -0.11 -0.43 -0.38 -0.23 -0.19	-0.25	0 of 18
KLSQSVLYEERNKNNVA	QASTRES	QQYHRLPLS	-0.09 0.17 -0.14 -0.46 -0.22 0.02	-0.12	0 of 18
KFSQSVLYESRNKNSVA	NASTRLS	QQYHRLPLS	0.60 0.54 0.30 0.34 0.36 0.70	0.47	0 of 18
KLSGSVLYESRNKNSVA	EASTRES	QQYHRLPLS	-0.01 -0.05 -0.09 0.08 -0.32 0.29	-0.02	0 of 18
KLSQSVLYQSRNKNSVA	NASTRES	QQYHRLPLS	-0.02 -0.37 -0.30 -0.41 -0.04 -0.27	-0.24	1 of 18 (2.71)
KLSQSHLYESRMKNSVA	NASTRCS	QQYHRLPLS	0.20 0.17 -0.05 -0.10 0.15 0.38	0.12	1 of 18 (1.96)
KLSQSDLYESRMKNSVA	DASTRES	QQYHRLPLS	-0.13 -0.34 -0.52 -0.18 -0.63 -0.23	-0.34	0 of 18
KLSQSVLYESRNKNSVA	DASTRES	QDYHRLPLS	-0.19 -0.28 -0.36 -0.28 -0.37 -0.06	-0.26	0 of 18
KLQQSNLYESRNKNSVA	NASQRES	QQYHRLPLS	0.62 -0.05 -0.13 -0.15 -0.02 -0.27	0.00	1 of 18 (1.46)
KLSQSQLYESRNKNSVA	NASTRYS	QQYHRLPLS	0.05 -0.36 -0.30 -0.25 -0.19 0.07	-0.16	1 of 18 (2.57)

A selection of 2 entries from above:

CDR-L1	CDR-L2	CDR-L3	replicates, log10 nM	log10 Kd (nM), mean	control signals
KISQSELYESRNKNSVA	NASQRES	QQYHRLPLS	0.05 0.21 0.00 -0.15 -0.14 0.13	0.02	3 of 18 (2.74)
KMSQSVLYEDRNKNSVA	NASQRES	QQYHRLPLS	0.12 0.00 0.05 -0.09 0.01 0.20	0.05	2 of 18 (2.90)

Nonspecific signal, from three strains lacking the peptide, appeared in 4% of pairings of all light chain designs, centred on 2.64 (5% of these signals below 1.59); values are not corrected for it. For each scFv, signals with the empty controls are counted beside the result, with their mean in brackets.
A sequence measured in both rounds can read differently, since the two assays cover different ranges.
Of ten entries with the parent sequence, four were seen in most replicates (averages 0.34 to 2.37), three in one and three in none, so single entries are noisy.
The authors' rule: three or more of the six replicates give a measured affinity, fewer mean a poor binder.

The measurements come from Li et al. 2023 (doi:10.1038/s41467-023-39022-2) through the FLAb antibody collection.